Experimental data published in PubChem BioAssay AID504799 (The Scripps Research Institute Molecular Screening Center, 2011).
The list shows a part of the results, in another mix than the full data. Activity calls are given as the source filed them.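 Rule for the calls: active = mean activation over triplicate runs exceeds the adjusted cutoff derived for the parent primary screen (cut at about 19% in these data); inactive = the rest.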

Test: FP signal interference without PKA proteins, confirmation, artefact control for PKA-R1A activator project, biochemical, fluorescence polarization, triplicate (AID 504799);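 note: no PKA protein present so any polarization rise reflects compound interference; 0% = tracer peptide mix alone and 100% = mix with added PKA catalytic subunit; higher means stronger polarization artifact and likely false positive in parent screen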
Conditions: Cy5-IP20 peptide alone, fluorescence polarization artifact counterscreen; at 11.4 µM; hits give high values

SMILES: CC(C)c1ccc(OP(=O)(Nc2ccccn2)Oc2ccccc2F)cc1 (stereo unspecified)
- activation: inactive: -1.91%
